Laboratory results: patent publication US10736831B2, “Oral care compositions” (Colgate-Palmolive Company, priority 2015, dated 2020)

Tested on: five species mix of representative oral bacterial species
Assay: resazurin cell viability assay (bacterial metabolism/viability)
Conditions: aqueous test solutions; incubated 1 hour at 37° C.; resazurin 50 μg/ml; fluorescence 560/590 nm
Procedure: A five species mix of representative oral bacterial species was used to simulate the complex bacterial flora of the oral environment. A bacterial mix comprising Actinomyces viscosus, Lactobacillus casei, Streptococcus oralis, Fusobacteriaum nucleatum and Veillonella parvulal was incubated with the compound under investigation for 1 hour at 37° C., neutralized, washed and stained with 50 μg/ml resazurin solution. When viable bacteria are incubated with resazurin, the blue non-fluorescent dye is reduced by the bacteria to pink fluorescent resorufin. Fluorescence of the test sample is read at 560 nm excitation/590 nm emission and compared to the fluorescence of a standardized mixture of live and dead bacteria to determine the percentage of the initial population that is viable after incubation.
In order to minimize the effects of formula excipients, dilute 1:100 and 1:10 dentifrice slurries of formulations in water were used in the assay. As before, the test compound (as a dilute slurry) was incubated with the bacteria for 1 hour at 37° C., neutralized, washed and stained with 50 μg/ml resazurin solution. The percentage of viable bacteria was then determined.

zinc coceth sulfate [0.5 wt. % ZCS]
% bacteria viable following treatment: 10.79%
